Reference: ChEMBL document CHEMBL5512690, “Identification and Validation of PKR as a Direct Target for the Novel Sulfonamide-Substituted Tetrahydroquinoline Nonselective Inhibitor of the NLRP3 Inflammasome” (J Med Chem, 2024)
Calls of active or inactive are those of the source. No cut-off for these calls is given here.

The chains behind the UniProt entries cited, without tags or fusion partners. Where a name states a change or a piece, a line headed by the entry shows the natural chain unless it says otherwise.
UniProt P19525: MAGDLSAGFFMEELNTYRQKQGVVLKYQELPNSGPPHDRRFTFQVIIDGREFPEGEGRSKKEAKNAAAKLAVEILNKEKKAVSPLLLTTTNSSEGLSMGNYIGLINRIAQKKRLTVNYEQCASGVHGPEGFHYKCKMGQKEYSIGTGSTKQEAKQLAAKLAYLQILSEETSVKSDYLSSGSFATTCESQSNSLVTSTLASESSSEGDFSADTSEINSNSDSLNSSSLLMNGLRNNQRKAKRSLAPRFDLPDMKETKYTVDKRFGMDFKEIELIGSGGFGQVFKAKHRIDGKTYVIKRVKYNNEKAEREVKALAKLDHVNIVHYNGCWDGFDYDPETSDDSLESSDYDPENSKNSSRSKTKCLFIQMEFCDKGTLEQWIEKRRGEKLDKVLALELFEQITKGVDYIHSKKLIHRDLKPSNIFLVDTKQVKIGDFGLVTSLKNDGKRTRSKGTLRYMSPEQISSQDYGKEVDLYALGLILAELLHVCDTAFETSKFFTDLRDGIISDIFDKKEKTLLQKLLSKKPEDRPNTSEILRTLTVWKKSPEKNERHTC
UniProt Q8R4B8, whole entry: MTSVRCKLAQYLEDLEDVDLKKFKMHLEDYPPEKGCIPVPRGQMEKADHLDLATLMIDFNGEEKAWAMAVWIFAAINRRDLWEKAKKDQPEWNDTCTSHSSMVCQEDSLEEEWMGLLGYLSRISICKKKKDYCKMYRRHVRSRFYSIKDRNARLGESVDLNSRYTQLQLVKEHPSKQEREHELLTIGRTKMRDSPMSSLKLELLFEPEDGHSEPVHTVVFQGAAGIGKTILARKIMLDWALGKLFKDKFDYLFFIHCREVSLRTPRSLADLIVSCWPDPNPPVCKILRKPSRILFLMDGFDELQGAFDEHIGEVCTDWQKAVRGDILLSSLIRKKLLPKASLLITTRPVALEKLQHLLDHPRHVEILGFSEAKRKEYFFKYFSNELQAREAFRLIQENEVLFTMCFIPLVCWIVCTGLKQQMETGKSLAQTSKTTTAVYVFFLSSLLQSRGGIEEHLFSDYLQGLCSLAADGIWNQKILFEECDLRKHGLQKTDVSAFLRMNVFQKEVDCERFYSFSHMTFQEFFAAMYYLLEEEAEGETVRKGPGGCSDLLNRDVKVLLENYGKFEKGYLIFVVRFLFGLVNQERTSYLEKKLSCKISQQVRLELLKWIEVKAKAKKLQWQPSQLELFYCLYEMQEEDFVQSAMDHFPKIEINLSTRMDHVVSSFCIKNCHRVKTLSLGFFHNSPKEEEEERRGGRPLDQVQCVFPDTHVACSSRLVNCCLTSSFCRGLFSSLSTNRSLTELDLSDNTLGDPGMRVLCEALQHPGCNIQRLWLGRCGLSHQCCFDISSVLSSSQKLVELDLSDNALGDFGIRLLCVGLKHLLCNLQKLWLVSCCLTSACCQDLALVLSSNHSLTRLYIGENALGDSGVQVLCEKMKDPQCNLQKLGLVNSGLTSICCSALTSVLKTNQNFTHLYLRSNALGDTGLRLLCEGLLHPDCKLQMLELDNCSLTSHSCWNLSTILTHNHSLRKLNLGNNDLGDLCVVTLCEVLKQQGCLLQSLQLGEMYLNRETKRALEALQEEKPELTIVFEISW
UniProt Q9NPP4, whole entry: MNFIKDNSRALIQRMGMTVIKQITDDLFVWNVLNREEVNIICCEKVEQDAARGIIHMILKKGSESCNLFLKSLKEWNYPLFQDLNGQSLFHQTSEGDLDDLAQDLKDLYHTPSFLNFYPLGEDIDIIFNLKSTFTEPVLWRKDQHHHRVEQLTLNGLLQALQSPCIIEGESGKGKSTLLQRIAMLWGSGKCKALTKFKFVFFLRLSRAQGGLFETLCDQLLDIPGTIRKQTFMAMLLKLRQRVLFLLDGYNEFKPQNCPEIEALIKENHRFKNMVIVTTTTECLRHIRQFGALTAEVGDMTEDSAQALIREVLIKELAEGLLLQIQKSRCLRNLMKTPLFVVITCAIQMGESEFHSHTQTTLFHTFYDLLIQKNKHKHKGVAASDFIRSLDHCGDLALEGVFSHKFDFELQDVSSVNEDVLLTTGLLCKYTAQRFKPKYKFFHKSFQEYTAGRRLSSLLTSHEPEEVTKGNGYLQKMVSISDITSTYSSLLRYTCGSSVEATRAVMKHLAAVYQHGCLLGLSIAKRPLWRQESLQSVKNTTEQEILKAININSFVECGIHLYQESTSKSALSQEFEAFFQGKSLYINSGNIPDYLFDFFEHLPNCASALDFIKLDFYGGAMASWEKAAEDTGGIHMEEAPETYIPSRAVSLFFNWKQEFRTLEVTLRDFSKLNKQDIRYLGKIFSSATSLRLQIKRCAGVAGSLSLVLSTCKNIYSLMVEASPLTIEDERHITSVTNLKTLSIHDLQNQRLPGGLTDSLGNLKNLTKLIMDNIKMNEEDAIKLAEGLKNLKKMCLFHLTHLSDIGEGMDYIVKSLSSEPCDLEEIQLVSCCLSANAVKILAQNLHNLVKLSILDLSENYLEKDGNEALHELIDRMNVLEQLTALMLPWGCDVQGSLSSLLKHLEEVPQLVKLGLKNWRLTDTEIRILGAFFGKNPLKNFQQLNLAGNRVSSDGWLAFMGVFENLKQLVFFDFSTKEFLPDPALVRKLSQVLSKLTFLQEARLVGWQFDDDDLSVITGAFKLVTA

Experiments:
[1] = biological target: Interferon-induced, double-stranded RNA-activated protein kinase (Homo sapiens) (UniProt P19525); assay: Binding affinity to PKR in human differentiated THP-M cells derived PMA induced THP-1 cells assessed as protein labelling measured after 12 hrs by Dapi-staining based analysis; format: cell-based; details: dose 2-20 µM
THP-M = assay: Cytotoxicity against human differentiated THP-M cells derived PMA induced THP-1 cells at upto 100 uM measured after 72 hrs by MTT assay; format: functional, cell-based
[2] = biological target: Interferon-induced, double-stranded RNA-activated protein kinase (Homo sapiens) (UniProt P19525); assay: Binding affinity to PKR in human differentiated THP-M cells derived PMA induced THP-1 cells assessed as protein labelling at 10 to 20 uM measured after 12 hrs by immunofluorescence analysis; format: cell-based; details: dose 10-20 µM
[3] = biological target: Interferon-induced, double-stranded RNA-activated protein kinase (Homo sapiens) (UniProt P19525); assay: Binding affinity to human PKR by immunoblot analysis; details: dose 10-20 µM
[4] = biological target: T1, Interferon-inducible protein AIM2 (Homo sapiens) (UniProt O14862); assay: (§1) Inhibition of AIM2 inflammasome activation in LPS primed human differentiated THP-M cells derived PMA induced THP-1 cells assessed as inhibition of IL-1 beta level at 5 to 15 uM preincubated with compound for 24 hrs followed by LPS stimulation further stimulated for 4 hrs with Poly (dA:dT) by ELISA method; format: cell-based; details: dose 5-15 µM, time 28.0 hrs
T1 sequence (whole entry): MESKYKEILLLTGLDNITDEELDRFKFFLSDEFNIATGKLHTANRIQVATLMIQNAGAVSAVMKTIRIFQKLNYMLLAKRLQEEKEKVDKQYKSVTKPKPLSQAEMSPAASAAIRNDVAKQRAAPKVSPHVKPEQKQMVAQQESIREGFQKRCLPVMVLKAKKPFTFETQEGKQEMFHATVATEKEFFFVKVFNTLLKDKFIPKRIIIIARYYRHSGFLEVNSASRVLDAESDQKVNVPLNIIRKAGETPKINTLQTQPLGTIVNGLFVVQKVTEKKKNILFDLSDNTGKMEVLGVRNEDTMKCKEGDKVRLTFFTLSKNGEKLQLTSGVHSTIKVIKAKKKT

[5] = biological target: NACHT, LRR and PYD domains-containing protein 3 (Mus musculus) (UniProt Q8R4B8); assay: Inhibition of NLRP3 inflammasome activation in LPS primed mouse BMDM cells assessed as reduction in IL-1 beta level at 5 to 15 uM preincubated with compound for 24 hrs followed by LPS stimulation for 3 hrs and further incubated with ATP for 1 hr by ELISA method; format: cell-based; details: dose 5-15 µM, time 28.0 hrs
[6] = biological target: NLR family CARD domain-containing protein 4 (Homo sapiens) (UniProt Q9NPP4); assay: as §1, with “NLRC4” for “AIM2”; format: cell-based; details: dose 5-15 µM, time 28.0 hrs

Row | SMILES | Activity [1] | Activity (THP-M) | Activity [2] | Activity [3] | inhibition [4] | inhibition [5] | inhibition [6]
1 | C#CCCC1(CCN2CCCc3ccc(NS(=O)(=O)c4ccc(-c5ccccc5)cc4)cc32)N=N1 | Active | inactive | Active | Dose-Dependent Effect | – | – | –
2 | CS(=O)(=O)N1CCCc2ccc(NS(=O)(=O)c3ccc(-c4ccccc4)cc3)cc21 | – | – | – | – | Active | Active | Active
